The assay concerns hydrogenosome membrane potential of T. vaginalis. In words: Hydrogenosomal membrane potential assay (JC-1). Conditions: 4 h; 51 and 63 at 100 µM, MTZ 24 µM, CCCP 50 µM.

`N#CC(C#N)=NNc1cccc(Cl)c1` [CCCP, m-chlorocarbonylcyanide phenylhydrazone]: the “alteration of hydrogenosome membrane potential (fluorescence units at 535 nm after JC-1)” value is listed as “showed a significant difference”.

(Values after publication PMC8881069, “Thio- and selenosemicarbazones as antiprotozoal agents against Trypanosoma cruzi and Trichomonas vaginalis” (Journal of Enzyme Inhibition and Medicinal Chemistry, 2022).)
